These results are taken from patent publication US20250186436A1 (4E Therapeutics, Inc., priority 2021, published 2025).

For this experiment, the system named is eIF4E phosphorylation at Serine 209 in HEK 293 cells. Description: eIF4E phosphorylation in HEK 293 cells (phospho-specific antibody, fluorescent plate reader).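 Note: Well-level p-eIF4E immunofluorescence normalized to DAPI signal, expressed as percent eIF4E phosphorylation, with IC50 derived from concentration-response curves.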 To be noted: read-out: HEK 293 cell; eIF4E phosphorylation at Serine 209, 2 hours exposure.

In the case of `Cc1cc(Nc2cc(N)ncn2)c(=O)n2c1C(=O)NC21CCCC2(CC2)CC1` (single isomer, unassigned) [Enatiomer 1 of 4ET-01-027], the IC50 worked out at 11.6 nM.

Turning to `Cc1cc(Nc2cc(N)ncn2)c(=O)n2c1C(=O)NC21CCCC2(CC2)CC1` (single isomer, unassigned) [Enatiomer 2 of 4ET-01-027], the IC50 came out at 25.4 nM.
